# LMNA splice mod: changes lamin A minigene splicing in HeLa cells; HeLa LMNA splicing GFP/RFP minigene ratio, 48 h; Potency, µM (top dose mostly 46.1 µM), without a hit: top-dose ratio change, negative = inhibition, most hits filed as inhibitors; 200,000 compounds, 0.01% hits; AID 1487; active means well fitted inhibition curve with a large enough effect in the signal ratio, with a control signal flat, not every such curve was filed as active; inconclusive means small, poorly fitted or top-dose-only effect, or effect the other way, or a change in a side signal; the % refers to the signal ratio; further: potency means the concentration at half of the fitted maximal effect; on the % scale 0 is the no-effect control and ±100 the full control effect
#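 Read-out is the ratio of GFP to DsRed2 object intensity, acquired by 488 nm laser-scanning cytometry on HeLa lamin A-EGFP minigene reporter cells. Compound incubation 48 hrs at 37 °C in Opti-MEM with 2% FBS; DMSO 0.5% final.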
# miR-21 FLuc: raises the signal of a miR-21 reporter; HeLa miR-21 FLuc reporter, luciferase, 48 h; Potency, µM (highest dose often 38.3 µM), inactives show at the highest dose reporter change, positive = more light; 340,000 tested, under 10 active; active = well fitted rising curve with a large enough effect; inconclusive = small, poorly fitted or top-dose-only effect; inactive = no such curve, though single readings can be large or run the other way;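 note: % of control where 0% means no effect; miR-21 action dims this reporter so a rising signal means less miR-21 action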
#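 HeLa cells stably expressing CMV-driven firefly luciferase with a downstream miR-21 binding sequence, endogenously expressing miR-21, were treated with titrations (up to about 40uM final) for 48 hours at 37 degree Celsius. Luciferase luminescence was read after lysis.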
# G9a block: inhibitors of human histone lysine methyltransferase G9a | Potency, µM (titrated, usually from 102 µM), without a hit: at the highest dose activity, negative = inhibition, most hits filed as inhibitors | G9a H3K9 monomethylation, AlphaScreen, 2 h | AID 504332 | 350,000 compounds, 8.8% hits | Q96KQ7; further: potency means the concentration at half of the fitted maximal effect; on the % scale 0 is the no-effect control and ±100 the full control effect; nearly all actives have a fitted effect of over 75% in size
#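 AlphaScreen detection with an anti-monomethyl H3K9 antibody quantified product after a 2 h room-temperature reaction containing 500 nM biotinylated H3K9 peptide, 20 µM SAM and 20 nM enzyme, which had been preincubated 15 min with compound.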
# Sfp inh: inhibitors of Bacillus subtilis Sfp phosphopantetheinyl transferase; Q9F4F7; Biochemical Sfp PPTase activity, qHTS; Potency, µM, inactives show max response, negative = inhibition, actives largely listed as inhibitors; hit rate 3.5% among 310,000; AID 1490; active means well fitted inhibition curve with a large enough effect; inconclusive means small, poorly fitted or top-dose-only effect, or another doubt; inactive means no such curve, though single readings can be large or run the other way;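 further: the enzyme is Sfp with the accession as filed and its product quenches rhodamine fluorescence; potency means the concentration at half of the fitted maximal effect; 0% = enzyme reaction without inhibitor and -100% = no enzyme wells; top concentration of the series not given in the record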
#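 Buffer: 50 mM Hepes-Na pH 7.6, 10 mM MgCl2, 0.01% Nonidet P-40, 0.01% BSA. Enzyme 15 nM, pre-exposed to compound 15 min; substrates then added and fluorescence change tracked over 30 min.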
# ALDH1A1 inh: ALDH1A1 (human) enzyme inhibition; Purified ALDH1A1, NADH fluorescence, propionaldehyde substrate; 220,000 compounds, 7.3% hits; P00352; Potency, µM (highest dose often 75.3 µM), inactives show at the top dose activity, negative = inhibition, hits mostly inhibitors; AID 1030; active means well fitted inhibition curve with a large enough effect, not every such curve was filed as active; inconclusive means small, poorly fitted or top-dose-only effect, or another doubt; inactive means no such curve, though single readings can be large or run the other way;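 further: potency means the concentration at half of the fitted maximal effect; plate controls were no enzyme wells and a reference inhibitor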
# JMJD2E inh: inhibitors of human JMJD2E histone demethylase; AID 2147; JMJD2E catalytic domain, FDH-coupled NADH fluorescence (FDH is formaldehyde dehydrogenase); Potency, µM (titrated, usually from 57.1 µM), inactives show top-dose activity change, negative = inhibition, most hits filed as inhibitors; 230,000 compounds, 1.6% hits; active means well fitted inhibition curve with a large enough effect, not every such curve was filed as active; inconclusive means small, poorly fitted or top-dose-only effect, or another doubt; inactive means no such curve, though single readings can be large or run the other way;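 further: potency means the concentration at half of the fitted maximal effect; 0% = wells with enzyme and -100% = buffer wells without enzyme; nearly all actives have a fitted effect of over 50% in size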
# * = called active by the depositor; ? = inconclusive; . = no result given; ! = a repeat was not active; [ ] = another dose, or the depositor's remark. Sampled rows, rich in hits. Any-hit rate of the full collection: about 13%. Unless noted, the call rests on the fitted dose curve; in most records, active means well fitted curve in the direction sought with a large enough effect; inconclusive means small, poorly fitted or top-dose-only effect, or another doubt; inactive means no such curve, though single readings can be large; an effect the other way counts as inactive or inconclusive.
# Abbreviations: A = LMNA splice mod; B = miR-21 FLuc; C = G9a block; D = Sfp inh; E = ALDH1A1 inh; F = JMJD2E inh
NC(=O)c1ccc[n+]([C@@H]2O[C@H](COP(=O)([O-])OP(=O)(O)OC[C@H]3O[C@@H](n4cnc5c(N)ncnc54)[C@@H](O)[C@@H]3O)[C@@H](O)[C@@H]2O)c1
  A: ?	B: .	C: 9.4%[21.5 µM]	D: 7.5%	E: 4.6%[20.9 µM]	F: 5.6%[25.5 µM]

NC(=S)c1ccc[n+]([C@@H]2O[C@@H](COP(=O)([O-])OP(=O)(O)OC[C@H]3O[C@@H](n4cnc5c(N)ncnc54)[C@H](OP(=O)(O)O)[C@H]3O)C(O)C2O)c1 (stereo not given in full)
  A: ?	B: .	C: 17.8µM*	D: .	E: 28.2µM*	F: ?

NC(=S)c1ccc[n+]([C@@H]2O[C@@H](COP(=O)([O-])OP(=O)(O)OC[C@H]3O[C@@H](n4cnc5c(N)ncnc54)[C@H](OP(=O)(O)O)[C@@H]3O)C(O)C2O)c1 (stereo not given in full)
  A: .	B: .	C: 7.94µM*	D: .	E: .	F: .

NC(=O)c1ccc[n+]([C@@H]2OC(COP(=O)([O-])OP(=O)(O)OCC3OC(n4cnc5c(N)ncnc54)C(O)C3O)C(O)C2O)c1 (stereo not given in full)
  A: .	B: .	C: -40.1%[2.33 µM]	D: 5.7%	E: -2.9%	F: -16.2%

Nc1ccn([C@@H]2O[C@H](CO)[C@@H](O)C2O)c(=O)n1 (stereo not given in full)
  A: ?	B: 7.8%	C: 11.2µM*!	D: 100µM*!	E: 2.4%	F: 4.4%

Nc1ccn([C@@H]2O[C@H](CO)[C@@H](O)[C@H]2O)c(=O)n1
  A: .	B: .	C: .	D: -4.0%	E: 5.2%	F: 7.9%

C[N+](C)(C)CCOP(=O)(O)OP(=O)([O-])OC[C@H]1O[C@@H](n2ccc(N)nc2=O)[C@H](O)[C@@H]1O
  A: -6.2%	B: -17.2%	C: 10µM*!	D: 11.6%	E: 9.6%	F: 7.6%

N#Cc1c2c(c(-c3ccccc3Cl)[nH]c1=S)CCCC2
  A: ?	B: -6.7%	C: 9.6%[12.7 µM]	D: ?	E: -5.3%	F: 8.7%

Cc1ccc(-c2c3c([nH]c(=S)c2C#N)CCCC3)o1
  A: 8.6%	B: -5.8%	C: 4.47µM*	D: 8.91µM*	E: 7.94µM*	F: 28.2µM*

N#Cc1c(-c2ccncc2)c2c([nH]c1=S)CCCC2
  A: 6.6%	B: -5.9%	C: 2.24µM*	D: 5.01µM*	E: ?	F: -25.9%

# Records above shown as hits in JMJD2E inh:
# Abbreviations: A = LMNA splice mod; B = miR-21 FLuc; C = G9a block; D = Sfp inh; E = ALDH1A1 inh; F = JMJD2E inh
Cc1ccc(-c2c3c([nH]c(=S)c2C#N)CCCC3)o1
  A: 8.6%	B: -5.8%	C: 4.47µM*	D: 8.91µM*	E: 7.94µM*	F: 28.2µM*

# Next entries:
# Abbreviations: A = LMNA splice mod; B = miR-21 FLuc; C = G9a block; D = Sfp inh; E = ALDH1A1 inh; F = JMJD2E inh
CCCCOc1ccc(-c2c(C#N)c(N)[nH]c(=S)c2C#N)cc1
  A: .	B: -8.0%	C: -6.4%[12.7 µM]	D: -11.4%	E: .	F: -0.5%

CSC1=NC(C(Cl)(Cl)Cl)N=C(c2ccc(C)cc2)N1 (stereo not given)
  A: ?	B: 22.3%	C: 14.1µM*	D: -10.9%	E: ?	F: -0.8%

S=c1[nH]nc(CSCCOc2ccccc2)o1
  A: 10.1%[46 µM]	B: -2.8%	C: .	D: -24.2%	E: 20µM*	F: -27.2%

S=c1[nH]nc(CSCCOc2ccc(Cl)cc2Cl)o1
  A: ?	B: -36.3%	C: 20µM*	D: 2.3%	E: 0.1µM*	F: ?

COc1ccc(Cc2n[nH]c(=S)o2)cc1
  A: .	B: -2.6%	C: .	D: -12.4%	E: ?	F: 1.8%

Cc1cccc(OCCSCc2nc3ccccc3[nH]2)c1
  A: 10.3%	B: -3.2%	C: 20.1%[0.0925 µM]	D: -1.1%	E: -3.7%	F: -1.6%

S=c1[nH]nc(COc2ccc3ccccc3c2)o1
  A: 2.8%	B: -42.9%	C: 0.891µM*	D: 0.4%	E: 3.55µM*	F: -8.6%

CCn1cc(C(=O)N2CCN(c3ccccc3)CC2)c(=O)c2cc(S(=O)(=O)N3CCC(C)CC3)ccc21
  A: .	B: -2.5%	C: ?	D: .	E: .	F: .

O=C(NC(=S)N1CCCCCC1)c1ccc(Cl)cc1Cl
  A: .	B: -4.0%	C: 18.5%	D: 19.6%	E: 3.1%	F: 1.1%

CC(OC(=O)Cc1c[nH]c2ccccc12)C(=O)Nc1ccc(S(N)(=O)=O)cc1 (stereo not given)
  A: .	B: .	C: -30.1%	D: .	E: .	F: .

# Entries of single compounds as entered above. Screens in order: LMNA splice mod | miR-21 FLuc | G9a block | Sfp inh | ALDH1A1 inh | JMJD2E inh
# S=c1[nH]nc(CSCCOc2ccc(Cl)cc2Cl)o1 is entered as ? | -36.3% | 20µM* | 2.3% | 0.1µM* | ?
# CC(OC(=O)Cc1c[nH]c2ccccc12)C(=O)Nc1ccc(S(N)(=O)=O)cc1 (stereo not given) is entered as . | . | -30.1% | . | . | .

# (list continues)
# Abbreviations: A = LMNA splice mod; B = miR-21 FLuc; C = G9a block; D = Sfp inh; E = ALDH1A1 inh; F = JMJD2E inh
Cc1ccc(-c2csc(N3N=C(c4ccccc4)/C(=C\c4ccc(N(C)C)cc4)C3=O)n2)cc1
  A: -6.1%	B: -3.2%	C: .	D: -4.6%	E: 3.55µM*	F: -5.1%

CCCOc1cccc(C(=O)NC(=S)Nc2cccc(C(F)(F)F)c2)c1
  A: ?	B: -0.8%	C: -40.0%[59 µM]	D: 4.1%	E: 17.8µM*	F: 3.0%

O=C(Nc1cccc(C(F)(F)F)c1)c1cccc(C(=O)Nc2cccc(C(F)(F)F)c2)c1
  A: .	B: 1.1%	C: -2.2%[59 µM]	D: .	E: .	F: .

CCOc1cccc(C(=O)Nc2cccc(C(C)=O)c2)c1
  A: ?	B: -32.9%	C: -12.8%[59 µM]	D: -14.0%	E: 5.8%	F: 2.2%
